{"source": "patent US11015179B2", "about": "“Peptide having anti-viral effect and composition containing same” (priority 2015, dated 2021)", "key": {"HCV": {"tested_on": "HCV", "assay": "Quantitative PCR of HCV NS2 transcript in JFH-1 cells", "assay_type": "cell-based, Hepatitis C virus (HCV2a JFH-1)"}, "p38, JNK and ERK": {"tested_on": "p38, JNK and ERK", "assay": "Immunoblotting of MAPK signaling factors in JFH-1 cells", "assay_type": "cell-based, human", "conditions": "2 hours"}, "JFH-1 cells": {"tested_on": "JFH-1 cells", "assay": "Flow cytometry of FITC-conjugated PEP1 penetration into JFH-1 cells", "assay_type": "cell-based, human"}, "HBV [1]": {"tested_on": "HBV", "assay": "HBsAg ELISA in whole HBV W4P genome-transfected Huh7.5 cell line", "assay_type": "cell-based, hepatitis B virus", "conditions": "Huh7.5, 10 μM, 48 hours", "description": "To observe virion production of entire HBV containing W4P by PEP1, 2×10^6 Huh7 cells were seeded into a 100 mm dish, and normal total HVC and HBV containing W4P were co-transiently transfected with a pCMV-β-gal vector including β-galactosidase, and incubated for 3 days. While changing the medium every 24 hours, the supernatant (sup) was collected. To analyze the supernatant, ELISA was performed according to experimental instructions using a generalized Bioelisa HBsAg color ELISA kit (BIOKIT S.A., Spain) and an HBeAg ELISA kit (BIOKIT S.A., Spain) that can detect a Hepatitis B surface antigen (HBsAg) and a Hepatitis B envelope antigen (HBeAg). 100 μl of each of the collected supernatants was added to each well, and reacted at 37° C. for 1 hour. 300 μl of a washing solution to each well for washing three times. 300 μl of a washing solution was added to the diluted conjugate solution for washing three times. 20 μl/ml of TMB was added to a substrate solution, and then 100 μl of the mixture was added to each well of a 96-well plate to allow a reaction for 30 minutes while light was blocked at room temperature. 100 μl of a stop solution was added to stop the reaction. The absorbance was read using an ELISA reader (Beckman, USA) at 450 nm. […]"}, "HBV [2]": {"tested_on": "HBV", "assay": "Virion production (real-time PCR of HBV DNA) in W4P-transfected Huh7 cell line", "assay_type": "cell-based, hepatitis B virus", "conditions": "Huh7, 10 μM, 48 hours", "description": "(§1) To observe the potential for virion proliferation of whole HBV containing W4P, virion DNA was extracted from the entire supernatant while the medium was changed every 24 hours by the above-described method, and subjected to real-time quantitative PCR using a Quantitech SYBR Green Master-Mix kit (Qiagen). The entire supernatant was centrifuged using an ultracentrifuge equipped with an SW28 swing rotor at 20,000 rpm for 2 hours to precipitate the virus, and the precipitated viral pellets were suspended with 200 μl of sterilized DW. […] Real-time PCR was performed at 40 cycles of 5 min at 95° C., 15 sec at 94° C., and 15 sec at 60° C. using the Exicycler™ 96 Real-Time Quantitative Thermal Block System (Bioneer Co., Korea), and the temperature was increased from 53° C. to 90° C. by modulating to 0 sec at 95° C., 30 sec at 53° C. and modulating by 0.1° C. per second to analyze a melting curve.\n(§2) To observe the virion production in the supernatant after the inhibition of HBsAg secretion by the PEP1 peptide was observed, virions were collected from the supernatant obtained by the above-described method using PEG 6000, and HBV DNA was obtained using a virus DNA prep kit (Intron, Korea), and then quantified by real-time PCR."}, "HBV [3]": {"tested_on": "HBV", "assay": "Virion production (real-time PCR of HBV DNA) in W4P-transfected Huh7.5 cell line", "assay_type": "cell-based, hepatitis B virus", "conditions": "Huh7.5, 10 μM, 48 hours", "description": "as §1, §2"}, "HNF4α": {"tested_on": "HNF4α", "assay": "HNF4α expression by western blotting in W4P-transfected HepG2 cell line", "assay_type": "cell-based, human", "conditions": "HepG2, 10 μM, 48 hours", "description": "It is known that the hepatocyte nuclear factor 4α binds to HBV enhancer I and thus plays a critical role in HBV synthesis. Therefore, 48 hours after the whole HBV W4P genome was injected into a HepG2 cell line and treated with 10 μM PEP1, proteins were extracted from the pellets, and subjected to western blotting. As a control group, a mock vector was injected and compared."}, "IL-6": {"tested_on": "IL-6", "assay": "IL-6 ELISA in culture supernatant of W4P-transfected Huh7 cell line", "assay_type": "cell-based, human", "conditions": "Huh7, 10 μM, 48 hours"}, "HBV [4]": {"tested_on": "HBV", "assay_type": "in vivo, mice", "conditions": "caudal vein twice a week; PEP1 50 μg/kg, 3TC 500 μg/kg", "description": "HBV transgenic mice were prepared by injecting a 1.1-fold HBV base sequence comprising a full open reading frame (ORF) into the fertilized eggs of the mice through microinjection. The base sequence of HBV used in the research was obtained using a pHY92-W4P plasmid. The pHY92-W4P plasmid was digested with EcoRi before injection into the fertilized eggs of the mice, and finally a base sequence of 3.9 kb in length was used for microinjection. Produced subjects were selected through PCR using a specific sequence of HBsAg. PCR-positive subjects were selected according to the concentrations of serum HBsAg and HBeAg, and finally used as PCR-positive, HBsAg-positive, and HBeAg-positive mice in the study. These mice were backcrossed with C57BL/6 mice to produce heterologous HBV transgenic mice.\nHBsAg levels in the HBV-transgenic mice were determined using an HBsAg ELISA kit (BIOKIT, Germany). To quantify HBV titers, total DNA was extracted and confirmed by real-time PCR.\nIn addition, HBV virion DNA was obtained from mouse serum and subjected to real-time PCR."}, "INFγ": {"tested_on": "INFγ", "assay": "INFγ activity of immune cells (FACS) in whole HBV W4P genome-transgenic mice", "assay_type": "in vivo", "conditions": "8 weeks; PEP1 50 μg/kg, 3TC 500 μg/kg; HBsAg stimulation 72 hours"}}, "data": [{"smiles": "CC[C@H](C)[C@H](NC(=O)[C@H](Cc1ccccc1)NC(=O)[C@H](CCCNC(=N)N)NC(=O)[C@H](CC(C)C)NC(=O)[C@H](CCCNC(=N)N)NC(=O)[C@H](CO)NC(=O)[C@@H](NC(=O)[C@H](CC(C)C)NC(=O)[C@H](CC(C)C)NC(=O)[C@H](C)NC(=O)[C@@H]1CCCN1C(=O)[C@H](CCCNC(=N)N)NC(=O)[C@H](C)NC(=O)[C@@H](N)CCC(=O)O)[C@@H](C)O)C(=O)N1CCC[C@H]1C(=O)N[C@@H](CCCCN)C(=O)O", "note": "[PEP1, EARPALLTSRLRFIPK]", "values": [{"measurement": "NS2 transcription (HCV RNA replication)", "setting": "HCV; 48 hours, vs vehicle, PEP1 until 10 μM, NAC 20 mM, PDTC 100 μM, vitamin E 10 μM", "result": "concentration-dependently inhibits the NS2 transcription"}, {"measurement": "HCV RNA replication with LRP1 knockdown", "setting": "HCV; LRP1 siRNA, PEP1 10 μM", "result": "not decreased"}, {"measurement": "Inhibition of HCV RNA (NS2 transcript) by PEP1 with anti-HSP70 or control (isotype) antibodies", "setting": "HCV; PEP1 10 μM, anti-HSP70 antibodies or isotype", "result": "inhibited by PEP1 regardless of antibodies"}, {"measurement": "Inhibition of HCV RNA (NS2 transcript) by PEP1 with anti-HSP90 antibodies", "setting": "HCV; PEP1 10 μM, anti-HSP90 antibodies", "result": "not inhibited"}, {"measurement": "Phosphorylation of p38 and JNK", "setting": "p38, JNK and ERK", "result": "decreased"}, {"measurement": "ERK activity", "setting": "p38, JNK and ERK; vitamin E 10 μM", "result": "increased"}, {"measurement": "Penetration into JFH-1 cells in the presence of PDTC", "setting": "JFH-1 cells", "result": "decreased"}, {"measurement": "Intracellular and extracellular HBsAg levels", "setting": "HBV [1]", "result": "neither an intracellular nor extracellular inhibitory effect was observed"}, {"measurement": "Virions produced in the supernatant", "setting": "HBV [2]", "result": "inhibitory effect"}, {"measurement": "Virion secretion", "setting": "HBV [3]", "result": "no effect on virion secretion"}, {"measurement": "HNF4α expression", "setting": "HNF4α", "result": "more effectively reduced by the PEP1 peptide than 3TC"}, {"measurement": "IL-6 level in culture supernatant", "setting": "IL-6", "result": "no IL-6 inhibitory effect"}, {"measurement": "Level of HBsAg in serum, reduction effect on week 8", "setting": "HBV [4]", "result": "approximately 10%"}, {"measurement": "Level of HBsAg in serum, up to 4 weeks", "setting": "HBV [4]", "result": "neither the PEP1 peptide nor 3TC showed a reduction effect"}, {"measurement": "Serum virion level, week 4", "setting": "HBV [4]", "result": "did not show virion inhibitory effects"}, {"measurement": "INFγ activity of CD4, CD8 and NK1.1 cells", "setting": "INFγ", "result": "did not exhibit INFγ activity"}]}]}
